Reference: patent publication US9556179B2 (BRISTOL-MYERS SQUIBB COMPANY, priority 2012, dated 2017)

Amino acid sequences for entries named in this document (tags omitted). A change or cut given only in a name is not applied to a line headed by its entry.
UniProt P49674, whole entry: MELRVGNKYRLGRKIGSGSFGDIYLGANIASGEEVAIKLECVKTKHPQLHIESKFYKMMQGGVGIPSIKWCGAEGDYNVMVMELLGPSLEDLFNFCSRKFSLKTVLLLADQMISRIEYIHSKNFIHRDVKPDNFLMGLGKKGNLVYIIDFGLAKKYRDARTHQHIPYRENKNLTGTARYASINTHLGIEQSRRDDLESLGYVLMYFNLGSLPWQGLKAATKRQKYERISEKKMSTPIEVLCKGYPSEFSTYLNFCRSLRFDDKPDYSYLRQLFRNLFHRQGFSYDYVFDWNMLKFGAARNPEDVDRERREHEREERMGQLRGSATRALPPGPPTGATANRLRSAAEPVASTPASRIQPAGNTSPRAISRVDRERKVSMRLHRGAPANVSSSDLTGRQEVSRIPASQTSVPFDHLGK
UniProt P48730, whole entry: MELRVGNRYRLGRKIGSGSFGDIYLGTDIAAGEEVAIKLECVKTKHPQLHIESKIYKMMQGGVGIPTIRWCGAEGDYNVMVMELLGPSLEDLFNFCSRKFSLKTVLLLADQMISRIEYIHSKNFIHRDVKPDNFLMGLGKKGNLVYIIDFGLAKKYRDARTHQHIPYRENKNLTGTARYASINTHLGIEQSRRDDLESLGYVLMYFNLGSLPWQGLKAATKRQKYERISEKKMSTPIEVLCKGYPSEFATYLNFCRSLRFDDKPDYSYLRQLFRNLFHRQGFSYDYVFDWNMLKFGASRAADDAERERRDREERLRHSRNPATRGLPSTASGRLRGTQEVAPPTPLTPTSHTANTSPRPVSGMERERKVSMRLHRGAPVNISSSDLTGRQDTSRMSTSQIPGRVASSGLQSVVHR

Tests used:
CK1ε = CK1ε (Homo sapiens (Human), UniProt P49674); assay: CK1ε kinase assay (Caliper LABCHIP electrophoretic separation of fluoresceinated peptide substrate and product); type: biochemical; settings: read-out: CK1ε (IC50); 200 pM enzyme, 50 μM ATP, 22 hours at room temperature
CK1δ = CK1δ (Homo sapiens (Human), UniProt P48730); assay: CK1δ kinase assay (Caliper LABCHIP electrophoretic separation of fluoresceinated peptide substrate and product); type: biochemical; settings: read-out: CK1δ (IC50); 200 pM enzyme, 50 μM ATP, 22 hours at room temperature

Row | Compound | IC50 (CK1ε) [nM] | IC50 (CK1δ) [nM]
1 | Cc1nc(-c2ccncc2)sc1C(=O)Nc1cn2nc(-c3c(-c4ccc(F)cc4)ncn3C3CCNCC3)ccc2n1 | 0.356 | –
2 | Cc1nc(-c2ccncc2)sc1C(=O)Nc1cn2nc(-c3c(-c4ccc(F)cc4)ncn3C3CCN(C)CC3)ccc2n1 | 1.22 | 0.847
